In patent US9572785B2, “DP2 antagonist and uses thereof” (Brickell Biotech, Inc., priority 2009, dated 2017):

Assay: Properties of the amorphous phase
Type: physicochemical

SMILES | chemical stability
CCN(Cc1cc(C(F)(F)F)ccc1-c1cc(CC(=O)O)ccc1OC)C(=O)NCc1ccccc1 [Compound 1, [2′-(3-benzyl-1-ethyl-ureidomethyl)-6-methoxy-4′-trifluoromethyl-biphenyl-3-yl]-acetic acid] | chemically stable
CCN(Cc1cc(C(F)(F)F)ccc1-c1cc(CC(=O)[O-])ccc1OC)C(=O)NCc1ccccc1.[Na+] [Compound 2, [2′-(3-benzyl-1-ethyl-ureidomethyl)-6-methoxy-4′-trifluoromethyl-biphenyl-3-yl]-acetic acid, sodium salt] | chemically stable
